Test results published in patent publication EP1276722B1, “NAPHTHAMIDINE UROKINASE INHIBITORS” (ABBOTT LABORATORIES, priority 2000, dated 2001).
pKi: −log10 of the molar value.

Target: T1, urokinase enzyme Abbokinase (Homo sapiens, UniProt P00749)
T1 construct: purchased Abbott Laboratories, Abbott Park, IL
Assay: Inhibition of urokinase on chromogenic substrate S-2444
Assay type: biochemical

Compound	pKi
CC(C)C1=NCCc2ccc([C@H]3C[C@@H]3c3ccc4cc(C(=N)N)ccc4c3)cc21 [Example 28, 6-((1S,2S)-2-(1-isopropyl-3,4-dihydro-7-isoquinolinyl)cyclopropyl)-2-naphthalenecarboximidamide]	7.24
CC(C)C1=NCCc2ccc(C3CC3c3ccc4cc(C(=N)N)ccc4c3)cc21 (stereo not drawn) [Example 14, 6-(2-(1-isopropyl-3,4-dihydro-7-isoquinolinyl)cyclopropyl)-2-naphthalenecarboximidamide]	6.84
CC(C)C1=NCCc2ccc([C@@H]3C[C@H]3c3ccc4cc(C(=N)N)ccc4c3)cc21 [Example 29, 6-((1R,2R)-2-(1-isopropyl-3,4-dihydro-7-isoquinolinyl)cyclopropyl)-2-naphthalenecarboximidamide]	6.44
